# The entries are a selection whose mix differs from that of the whole data set. The source made the active and inactive calls. No stated cut-off is given here; in the data, active means inhibition above about 30%; inactive means the rest.
# Assay: growth suppression of yeast trafficking mutant, preliminary HTS, modulators of trafficking downstream of Golgi apparatus project, 1536-format plate, OD 615 nm (AID 637)
# Conditions: yeast transport mutant growth, absorbance 615 nm, 18 h; hits give high values
row,Structure (SMILES),inhibition
1,Fc1ccccc1NC1CCN(Cc2ccccc2)CC1,inactive: 1.15%
